# Earlier results in patent publication US6544976B1, “Neurotrophic 2-azetidinecarboxylic acid derivatives, and related compositions and methods” (Ortho-McNeil Pharmaceutical, Inc., priority 1999, dated 2003).
# System: ALS patients
# Details: cited from earlier work
structure (smiles),measurement,value
Nc1nc2ccc(OC(F)(F)F)cc2s1 [Riluzole],rate of survival of ALS patients,increase the rate of survival
